Each structure is given as a SMILES string. Where two headings read alike, the source gives them in different places.

By UniProt entry, the sequences of proteins in these tests, tags left out. Residues count along the entry.
UniProt O95271, 1091-1325: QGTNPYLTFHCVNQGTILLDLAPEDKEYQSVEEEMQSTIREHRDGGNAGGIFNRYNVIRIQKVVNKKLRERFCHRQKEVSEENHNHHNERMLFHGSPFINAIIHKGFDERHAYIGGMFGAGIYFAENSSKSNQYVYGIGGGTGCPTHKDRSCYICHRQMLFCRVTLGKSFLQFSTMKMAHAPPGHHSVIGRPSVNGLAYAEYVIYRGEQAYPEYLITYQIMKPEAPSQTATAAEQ
UniProt Q9H2K2, 946-1162: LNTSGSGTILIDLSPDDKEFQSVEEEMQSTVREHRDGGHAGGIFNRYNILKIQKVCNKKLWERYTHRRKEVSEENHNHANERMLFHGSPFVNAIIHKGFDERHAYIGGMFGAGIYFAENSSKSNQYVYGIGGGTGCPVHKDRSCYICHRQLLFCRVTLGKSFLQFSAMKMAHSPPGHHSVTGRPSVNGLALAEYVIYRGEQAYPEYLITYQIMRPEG

In assay [1] the target is 6×HIS-tankyrase 1 (1091-1325) (Homo sapiens (Human), UniProt O95271). Briefly: biochemical. Conditions: 400 nM NAD, 60 minutes at room temperature, read-out: TNKS1 IP IC50.
Assay [2] relates to total β-catenin in SW480 colorectal cells. Put plainly: cells. In kind it is cell-based. Conditions: Homo sapiens, SW480, read-out: SW480-Total β-Catenin IC50 IP.
The target of assay [3] is 6×HIS-tankyrase 2 (946-1162) (Homo sapiens (Human), UniProt Q9H2K2). Put plainly: Tankyrase 2 biochemical assay (AlphaLisa, anti-PAR detection). The conditions noted are these: 4 nM enzyme, 250 nM NAD; read-out: TNKS2 IP IC50.

A word on the IC50: it is the concentration at which inhibition is half-maximal. Turning to `CC1(C)OC(=O)N([C@H]2CC[C@H](c3cnc(N)c(-c4ncccn4)c3)CC2)[C@@H]1c1ccccc1` [Example 75, (R)-3-((1r,4R)-4-(6-amino-5-(pyrimidin-2-yl)pyridin-3-yl)cyclohexyl)-5,5-dimethyl-4-phenyloxazolidin-2-one], the IC50 in assay [1] ([…] enzyme) is 174 nM. `CC1(C)OC(=O)N([C@H]2CC[C@H](NC(=O)c3ccnc4cc(F)cnc34)CC2)[C@H]1c1ccccc1` [Example 59, N-((1S,4r)-4-((S)-5,5-dimethyl-2-oxo-4-phenyloxazolidin-3-yl)cyclohexyl)-7-fluoro-1,5-naphthyridine-4-carboxamide]: the IC50 in assay [2] amounted to 180 nM. For `CC1(C)OC(=O)N([C@H]2CC[C@H](c3cnc(N)c(-c4ncccn4)c3)CC2)[C@H]1c1ccccc1` [Example 74, (S)-3-((1r,4S)-4-(6-amino-5-(pyrimidin-2-yl)pyridin-3-yl)cyclohexyl)-5,5-dimethyl-4-phenyloxazolidin-2-one], the IC50 in assay [1] ([…] enzyme) came out at 1.47 nM. `CC1(C)OC(=O)N([C@H]2CC[C@@H](c3cnc(N)c(-c4ncccn4)c3)CC2)[C@H]1c1ccccc1` (racemic) [Example 72, 3-((1s,4s)-4-(6-amino-5-(pyrimidin-2-yl)pyridin-3-yl)cyclohexyl)-5,5-dimethyl-4-phenyloxazolidin-2-one]: the IC50 in assay [1] (0.25 nM enzyme) amounted to 370 nM. For `CC1(C)OC(=O)N([C@H]2CC[C@H](n3c(=O)[nH]c4cc(Cl)ccc43)CC2)[C@H]1c1ccccc1` [Example 29, (S)-3-((1r,4S)-4-(5-chloro-2-oxo-2,3-dihydro-1H-benzo[d]imidazol-1-yl)cyclohexyl)-5,5-dimethyl-4-phenyloxazolidin-2-one], in assay [3], the IC50 was found to be 4.98 nM.

The record behind these values is patent US9340549B2, “Oxazolidinone compounds and derivatives thereof” (priority 2012, dated 2016).
